In article PMC8245553, “Identification of natural product modulators of Merkel cell carcinoma cell growth and survival” (Scientific Reports, 2021) one finds IC50 data, which are given here for 20 compounds.

One experiment concerns WaGa (VP-MCC) cells. Description: Differential growth inhibition/cytotoxicity assay (CellTiterGlo), WaGa. The note with it: read-out: IC50 (95% CI).
The subject of a further experiment is MKL-1 (VP-MCC) cells. As to the kind of experiment: Differential growth inhibition/cytotoxicity assay (CellTiterGlo/XTT), MKL-1. The settings on record: read-out: IC50 (95% CI).
Experiment [1] concerns HaCaT immortalized keratinocytes. As to the kind of experiment: cells. The settings on record: Homo sapiens, 72 h, read-out: IC50 (95% CI).
The test system of the next experiment is MKL-2 (VP-MCC) cells. Description: Differential growth inhibition/cytotoxicity assay (CellTiterGlo), MKL-2. The note with it: read-out: IC50 (95% CI).
The test system of experiment [2] is MCC13 (VN-MCC) cells. Description: cells. The settings on record: Homo sapiens, 72 h, read-out: IC50 (95% CI).
Experiment [3] relates to MCC26 (VN-MCC) cells. Description: cells. The settings on record: Homo sapiens, 72 h, read-out: IC50 (95% CI).
The subject of experiment [4] is MCC26 (VN-MCC) cells. The settings on record: read-out: IC50 (95% CI).
Experiment [5] relates to HaCaT immortalized keratinocytes. The note with it: read-out: IC50 (95% CI).
Experiment [6] deals with UISO (VN-MCC) cells.
Experiment [7] relates to MCC13 (VN-MCC) cells. The note with it: read-out: IC50 (95% CI).
Experiment [8] concerns UISO (VN-MCC) cells. Description: cells. The note with it: Homo sapiens, 72 h, read-out: IC50 (95% CI).

Read-outs that look alike come from different tables or passages of the source.

On to `O=Nc1ccc(O)c2ncccc12` [5-Nitroso-8-hydroxyquinoline], for which the IC50 – broadly, the midpoint of a concentration-inhibition curve – is 70 nM with WaGa (VP-MCC) cells (Homo sapiens, 72 h); 80 nM in the experiment on MKL-1 (VP-MCC) cells (Homo sapiens, MKL-1, 72 h); > 10000 nM in [1]; 30 nM in the experiment with MKL-2 (VP-MCC) cells (Homo sapiens, 72 h); 1400 nM with MCC13 (VN-MCC) cells [2]; 1970 nM in the experiment with MCC26 (VN-MCC) cells [3].
In the case of `CC1=CC(=O)c2c(O)cccc2C1=O` [Plumbagin], the IC50 in the experiment on WaGa (VP-MCC) cells (Homo sapiens, 72 h) was 550 nM; in the experiment with MKL-1 (VP-MCC) cells (Homo sapiens, MKL-1, 72 h) it was 1060 nM; in experiment [1], > 10000 nM; with MKL-2 (VP-MCC) cells (Homo sapiens, 72 h) it was 730 nM; with MCC13 (VN-MCC) cells [2], ~5000 nM; in the experiment with MCC26 (VN-MCC) cells [3] it was ~10000 nM.
In the case of `CCN(CC)C(=S)SSC(=S)N(CC)CC` [Disulfiram], the IC50 in the experiment with WaGa (VP-MCC) cells (Homo sapiens, 72 h) is 70 nM; in the experiment on MKL-1 (VP-MCC) cells (Homo sapiens, MKL-1, 72 h), < 10 nM; in experiment [1] it was > 10000 nM; in the experiment with MKL-2 (VP-MCC) cells (Homo sapiens, 72 h), 100 nM; in the experiment on MCC13 (VN-MCC) cells [2] it was 140 nM; in the experiment with MCC26 (VN-MCC) cells [3] it was 290 nM.
Regarding `Cc1c(O)c(O)c2c(c1O)C(=O)C(Cl)=C(Cl)C2=O` [NSC369976], the IC50 in the experiment with WaGa (VP-MCC) cells was 710 nM; in the experiment on MKL-1 (VP-MCC) cells, 1150 nM; with MCC26 (VN-MCC) cells [4], > 10000 nM; with MKL-2 (VP-MCC) cells it was 1070 nM; in [5], > 10000 nM; in the experiment with UISO (VN-MCC) cells [6] (read-out: IC50 (95% CI)), ~5000 nM. In addition, the IC50 with MCC13 (VN-MCC) cells [7] is ~10000 nM.
Consider Furoxanobenzofuroxan, for which the IC50 was 350 nM with WaGa (VP-MCC) cells; 150 nM with MKL-1 (VP-MCC) cells; 1700 nM in the experiment on MCC26 (VN-MCC) cells [4]; 160 nM in the experiment on MKL-2 (VP-MCC) cells; > 10000 nM in experiment [5]; 6910 nM in the experiment on UISO (VN-MCC) cells [6] (read-out: IC50 (95% CI)). Also, the IC50 with MCC13 (VN-MCC) cells [7] is > 10000 nM.
As for `CO[C@@]12[C@H](COC(N)=O)C3=C(C(=O)C(C)=C(N)C3=O)N1C[C@@H]1N[C@@H]12` [Mitomycin C, reference compound], the half-inhibitory concentration (IC50) in the experiment with WaGa (VP-MCC) cells (Homo sapiens, 72 h) is 360 nM; in the experiment on MKL-1 (VP-MCC) cells (Homo sapiens, MKL-1, 72 h) it was 240 nM; in experiment [1], 1020 nM; with MKL-2 (VP-MCC) cells (Homo sapiens, 72 h) it was 70 nM; in the experiment with UISO (VN-MCC) cells [6], 800 nM.
On to `O=C1C2=C3C4=[N+](CCc5c[nH]c1c54)[C@H]1C[C@@]34C[C@@H](N2)SC4=CC1=O` [Discorhabdin D], for which the IC50 in the experiment on WaGa (VP-MCC) cells (Homo sapiens, 72 h) is 970 nM; with MKL-1 (VP-MCC) cells (Homo sapiens, MKL-1, 72 h), 460 nM; in [1] it was 6170 nM; in the experiment with MKL-2 (VP-MCC) cells (Homo sapiens, 72 h) it was 1490 nM; in the experiment on MCC13 (VN-MCC) cells [2], 2670 nM; with UISO (VN-MCC) cells [8], 2070 nM.
Consider `Nc1nc(Cl)nc2c1ncn2[C@@H]1O[C@H](CO)[C@@H](O)[C@@H]1F` [Clofarabine], for which the IC50 was determined as 164 nM in the experiment on WaGa (VP-MCC) cells (Homo sapiens, 72 h); 101 nM with MKL-1 (VP-MCC) cells (Homo sapiens, MKL-1, 72 h); 1120 nM in experiment [1]; 282 nM with MKL-2 (VP-MCC) cells (Homo sapiens, 72 h); 184 nM with MCC13 (VN-MCC) cells [2]; 1060 nM in the experiment with UISO (VN-MCC) cells [6]. Moreover, the IC50 in the experiment with MCC26 (VN-MCC) cells [3] came out at 803 nM.
Consider `O=C(N[C@H](COC(=O)[C@H](Cc1ccccc1)NC(=O)c1ccccc1)Cc1ccccc1)c1ccccc1` [asperphenamate], for which the IC50 is ~5000 nM with WaGa (VP-MCC) cells (Homo sapiens, 72 h); ~10000 nM in the experiment on MKL-1 (VP-MCC) cells (Homo sapiens, MKL-1, 72 h); > 10000 nM in experiment [1]; 3410 nM with MKL-2 (VP-MCC) cells (Homo sapiens, 72 h); > 10000 nM in the experiment with MCC13 (VN-MCC) cells [2]; > 10000 nM in the experiment on MCC26 (VN-MCC) cells [3].
In the case of `CCOC(C)C(C=NNC(N)=S)=NNC(N)=S` (stereo not shown) [Gloxazone, 3-ethoxy-2-oxobutyraldehyde bis(thiosemicarbazone)], the IC50 was ~30 nM in the experiment with WaGa (VP-MCC) cells (Homo sapiens, 72 h); ~20 nM with MKL-1 (VP-MCC) cells (Homo sapiens, MKL-1, 72 h); 220 nM in [1]; 30 nM in the experiment with MKL-2 (VP-MCC) cells (Homo sapiens, 72 h); < 20 nM in the experiment with MCC13 (VN-MCC) cells [2]; ~40 nM in the experiment on MCC26 (VN-MCC) cells [3].
For `Cc1[nH]c2ccccc2c1CCNCc1ccc(/C=C/C(=O)NO)cc1` [Panobinostat], the IC50 in the experiment on MKL-1 (VP-MCC) cells (Homo sapiens, MKL-1, 72 h) is 32 nM; in the experiment with MKL-2 (VP-MCC) cells (Homo sapiens, 72 h) it was 3.4 nM; with MCC13 (VN-MCC) cells [2], 51 nM; with MCC26 (VN-MCC) cells [3], 72 nM.
`CC[C@](C)(O)C(=O)O[C@H]1C(=O)O[C@@H]2C[C@H]3C(C)=C[C@H](O)[C@@H](O)[C@]3(C)[C@H]3[C@]4(O)OC[C@]32[C@@H]1[C@@H](C)[C@H]4O` [Glaucarubin]: the IC50 in the experiment with WaGa (VP-MCC) cells (Homo sapiens, 72 h) was 1560 nM; with MKL-1 (VP-MCC) cells (Homo sapiens, MKL-1, 72 h) it was 490 nM; in experiment [1], > 10000 nM; in the experiment on MKL-2 (VP-MCC) cells (Homo sapiens, 72 h), 3060 nM; with MCC13 (VN-MCC) cells [2], ~10000 nM; in the experiment on UISO (VN-MCC) cells [8], ~6000 nM. In addition, the IC50 with MCC26 (VN-MCC) cells [3] is > 10000 nM.
On to `C[n+]1ccc2c(c1)c(O)c1c3c(c4cc(Br)ccc4nc32)C(=O)C[N+]1(C)C` [petrosamine B], for which the IC50 is 3400 nM with WaGa (VP-MCC) cells (Homo sapiens, 72 h); 530 nM in the experiment with MKL-1 (VP-MCC) cells (Homo sapiens, MKL-1, 72 h); > 10000 nM in experiment [1]; > 10000 nM with MKL-2 (VP-MCC) cells (Homo sapiens, 72 h); 1760 nM in the experiment on MCC13 (VN-MCC) cells [2]; > 10000 nM in the experiment with MCC26 (VN-MCC) cells [3].
With `Nc1nc(Cl)nc2c1ncn2[C@H]1C[C@H](O)[C@@H](CO)O1` [Cladribine], the IC50 with WaGa (VP-MCC) cells (Homo sapiens, 72 h) was 838 nM; in the experiment on MKL-1 (VP-MCC) cells (Homo sapiens, MKL-1, 72 h), 157 nM; in experiment [1] it was 1020 nM; with MKL-2 (VP-MCC) cells (Homo sapiens, 72 h) it was 290 nM; with MCC13 (VN-MCC) cells [2], 56.9 nM; with UISO (VN-MCC) cells [6], 227 nM. The IC50 in the experiment on MCC26 (VN-MCC) cells [3] is ~10000 nM.
In the case of `COc1c(C)c2c(c(O)c1C/C=C(\C)CCC(=O)O)C(=O)OC2` [mycophenolic acid], the IC50 with WaGa (VP-MCC) cells (Homo sapiens, 72 h) is 700 nM; in the experiment on MKL-1 (VP-MCC) cells (Homo sapiens, MKL-1, 72 h), 820 nM; in experiment [1] it was ~5000 nM; with MKL-2 (VP-MCC) cells (Homo sapiens, 72 h), 330 nM; with MCC13 (VN-MCC) cells [2], 510 nM; with MCC26 (VN-MCC) cells [3], 1400 nM.
For `C[C@@H]1C[C@H](C)C[C@H](C)[C@@H](O)CC(=O)O[C@H]([C@@H]2CCC[C@H]2C(=O)O)C/C=C/C=C(/C#N)[C@H](O)[C@@H](C)C1` [Borrelidin], the IC50 in experiment [1] came to 72 nM; in the experiment with MCC13 (VN-MCC) cells [2], 5.8 nM; with UISO (VN-MCC) cells [8] it was 5 nM; in the experiment on MCC26 (VN-MCC) cells [3], 12.9 nM.
In the case of `S=C(S)N1CCCC1` [Pyrrolidinedithiocarbamate], the IC50 was 170 nM in the experiment with WaGa (VP-MCC) cells (Homo sapiens, 72 h); 170 nM in the experiment on MKL-1 (VP-MCC) cells (Homo sapiens, MKL-1, 72 h); > 10000 nM in experiment [1]; 230 nM in the experiment with MKL-2 (VP-MCC) cells (Homo sapiens, 72 h); ~300 nM with MCC13 (VN-MCC) cells [2]; ~200 nM in the experiment with MCC26 (VN-MCC) cells [3].
As for `Oc1ccc(/C=N/NC(=S)Nc2cccnc2)nc1` [NSC185065], the IC50 in the experiment on WaGa (VP-MCC) cells is 2840 nM; in the experiment with MKL-1 (VP-MCC) cells it was 2970 nM; in the experiment with MCC26 (VN-MCC) cells [4] it was 3400 nM; with MKL-2 (VP-MCC) cells it was 2540 nM; in experiment [5] it was > 10000 nM; in the experiment on UISO (VN-MCC) cells [6] (read-out: IC50 (95% CI)) it was 2240 nM. Moreover, the IC50 in the experiment with MCC13 (VN-MCC) cells [7] stood at 3730 nM.
On to `COc1cc([C@@H]2c3cc4c(cc3[C@@H](O[C@@H]3O[C@@H]5CO[C@@H](C)O[C@H]5[C@H](O)[C@H]3O)[C@H]3COC(=O)[C@H]23)OCO4)cc(OC)c1O` [Etoposide], for which the IC50 (in [1]; with UISO (VN-MCC) cells [6]; with MCC26 (VN-MCC) cells [3]) was ~10000 nM in each case.
For the compound `C/C=C(/C)C(=O)O[C@H]1C(C)=C2[C@H]([C@@H]1OC(=O)CCCCCCC)[C@@](C)(OC(C)=O)C[C@H](OC(=O)CCC)[C@@]1(O)[C@H]2OC(=O)[C@@]1(C)O` [Thapsigargin], the IC50 is 1020 nM with WaGa (VP-MCC) cells (Homo sapiens, 72 h); > 10000 nM in the experiment with MKL-1 (VP-MCC) cells (Homo sapiens, MKL-1, 72 h); 1070 nM in experiment [1]; 1140 nM in the experiment on MKL-2 (VP-MCC) cells (Homo sapiens, 72 h); 970 nM in the experiment on MCC13 (VN-MCC) cells [2]; 1110 nM in the experiment with MCC26 (VN-MCC) cells [3].
